Activity change, negative = substrate turnover data for 43 molecules are collected here from PubChem BioAssay AID588456 (National Center for Advancing Translational Sciences (NCATS), 2011).

By UniProt entry, the sequences of proteins in these tests, tags left out.
UniProt O89049, whole entry: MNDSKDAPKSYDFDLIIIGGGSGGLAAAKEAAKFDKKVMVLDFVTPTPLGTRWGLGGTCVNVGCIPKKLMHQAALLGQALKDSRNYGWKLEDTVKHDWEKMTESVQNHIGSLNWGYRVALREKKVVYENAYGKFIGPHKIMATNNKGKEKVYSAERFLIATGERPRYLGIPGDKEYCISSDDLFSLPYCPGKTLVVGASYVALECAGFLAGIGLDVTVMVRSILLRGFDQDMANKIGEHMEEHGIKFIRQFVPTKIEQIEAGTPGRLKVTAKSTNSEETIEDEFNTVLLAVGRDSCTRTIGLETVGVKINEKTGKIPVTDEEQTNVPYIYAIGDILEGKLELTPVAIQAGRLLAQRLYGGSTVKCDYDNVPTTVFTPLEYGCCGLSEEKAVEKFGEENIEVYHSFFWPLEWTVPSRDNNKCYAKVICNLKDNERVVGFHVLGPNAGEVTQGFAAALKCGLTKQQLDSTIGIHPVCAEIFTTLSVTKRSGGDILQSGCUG

Only a part is listed here, and it is no random draw. Activity calls are given as the source filed them. Calls follow the shape of the dose curve; as a rule, active = well fitted inhibition curve with a large enough effect; inconclusive = small, poorly fitted or top-dose-only effect; inactive = no such curve, though single readings can be large or run the other way.
% is scaled to controls: 0 for no effect and ±100 for the full control effect.

The test has as its target Thioredoxin reductase 1, cytoplasmic (Rattus norvegicus) (UniProt O89049). In words: qHTS Assay for Substrates of Mammalian Selenoprotein Thioredoxin Reductase 1 (TrxR1): qHTS. Also: nearly all actives have a fitted effect of over 50% in size. As to conditions: purified TrxR1 substrate turnover, NADPH consumption readout; at 114 µM (top of the series) unless noted. (In general: Quantitative high-throughput screening tests each substance at several concentrations.)
For the molecule `COc1ccccc1OP(C)(=O)Nc1ccc(C)c(C)c1` (stereo not drawn), the activity change, negative = substrate turnover is inactive: -12.3%.

For `COc1ccc(OP(C)(=O)Nc2ccccc2Br)cc1` (stereo not drawn), the activity change, negative = substrate turnover is inactive: 1.92%.

Consider `O=[N+]([O-])c1cc([N+](=O)[O-])c(Nc2ccccn2)c([N+](=O)[O-])c1`, for which the activity change, negative = substrate turnover is inactive: -3.83% [at 57.1 µM].

Take `Cc1c(NP(C)(=O)Oc2ccc(C(C)C)cc2)c(=O)n(-c2ccccc2)n1C` (stereo not drawn): the activity change, negative = substrate turnover was inactive: 10.7% [at 57.1 µM].

Turning to `COc1ccccc1OP(C)(=O)Nc1ccc(C)cc1C` (stereo not drawn), the activity change, negative = substrate turnover was inactive: 16.8% [at 57.1 µM].

In the case of `CP(=O)(Nc1ccccn1)Oc1ccccc1` (stereo not drawn), the activity change, negative = substrate turnover is inactive: -7.17%.

For `CCc1ccc(OP(C)(=O)O)cc1`, the activity change, negative = substrate turnover is inactive: -1.18%.

Regarding `COc1ccccc1OP(C)(=O)Nc1ccc(Br)cc1` (stereo not drawn), the activity change, negative = substrate turnover is inactive: 2.1%.

Regarding `COc1ccc(OP(C)(=O)Nc2ccccn2)cc1` (stereo not drawn), the activity change, negative = substrate turnover is inactive: -3.79%.

As for `CN(C)CCOC(=O)C(O)(c1ccccc1)C1CCCC1` (stereo not drawn), the activity change, negative = substrate turnover is inactive: 2.22%.

For `CC(C)(C)c1ccc(OP(C)(=O)O)cc1`, the activity change, negative = substrate turnover is inactive: 6.92%.

As for `COc1ccccc1OP(C)(=O)Nc1ccccc1Br` (stereo not drawn), the activity change, negative = substrate turnover is inactive: -2.57%.

Regarding `CP(=O)(Nc1ccc(Cl)cc1)Oc1ccc(F)cc1` (stereo not drawn), the activity change, negative = substrate turnover was inactive: -2.86%.

Take `CN(C)C(=O)c1c([N+](=O)[O-])cc([N+](=O)[O-])cc1[N+](=O)[O-]`: the activity change, negative = substrate turnover is inactive: -0.301%.

Take `COc1ccc(OP(C)(=O)Nc2ccc(Br)cc2)cc1` (stereo not drawn): the activity change, negative = substrate turnover is inactive: -1.2%.

On to `CCN(CC)CC(O)COC(=O)C(O)(c1ccccc1)C1CCCCC1` (stereo not drawn), for which the activity change, negative = substrate turnover was inactive: -4.16%.

In the case of `N#[O+].[C-]#N.[C-]#N.[C-]#N.[C-]#N.[C-]#N.[Fe+2].[Na+].[Na+]`, the activity change, negative = substrate turnover was inactive: 5.5% [at 57.1 µM].

Regarding `O=C(OCCCN1CCCC1)C(O)(c1ccccc1)C1CCCCC1` (stereo not drawn), the activity change, negative = substrate turnover was inactive: -1.12% [at 57.1 µM].

For the molecule `COc1ccccc1OP(C)(=O)Nc1c(C)n(C)n(-c2ccccc2)c1=O` (stereo not drawn), the activity change, negative = substrate turnover is inactive: 6.35%.

For the molecule `CCc1ccc(OP(C)(=O)Nc2cccnc2)cc1` (stereo not drawn), the activity change, negative = substrate turnover is inactive: 3.46%.

As for `CP(=O)(Oc1ccccc1)N1CCOC1=O` (stereo not drawn), the activity change, negative = substrate turnover is inactive: 2.77% [at 57.1 µM].

`Nc1ccc2c(ccc3cccnc32)n1.O=[N+]([O-])c1cc([N+](=O)[O-])c(O)c([N+](=O)[O-])c1`: the activity change, negative = substrate turnover is inactive: 10.9%.

As to `CCOC(=O)c1ccc(NP(C)(=O)Oc2ccc(Cl)cc2)cc1` (stereo not drawn), the activity change, negative = substrate turnover is inactive: -6.71%.

Turning to `CP(=O)(OC12CC3CC(CC(C3)C1)C2)OC12CC3CC(CC(C3)C1)C2`, the activity change, negative = substrate turnover was inactive: 6.36%.

`O=[N+]([O-])c1ccc(OP2(=O)COCCO2)cc1` (stereo not drawn): the activity change, negative = substrate turnover was inactive: -19.1%.

As to `Cc1cc(-c2cccc3ccccc23)c(C)cn1.O=[N+]([O-])c1cc([N+](=O)[O-])c(O)c([N+](=O)[O-])c1`, the activity change, negative = substrate turnover was inactive: -18.6%.

For the molecule `Cc1c(C(c2ccc3c(c2)OCO3)c2c(C)n(C)n(-c3ccccc3)c2=O)c(=O)n(-c2ccccc2)n1C.O=[N+]([O-])c1cc([N+](=O)[O-])c(O)c([N+](=O)[O-])c1`, the activity change, negative = substrate turnover was inactive: 6.99%.

Take `COc1ccc(OP(C)(=O)Nc2cccc(Br)c2)cc1` (stereo not drawn): the activity change, negative = substrate turnover was inactive: -3.35%.

As for `CN(C)CCOC(=O)C(O)(c1ccccc1)C1CCCCC1` (stereo not drawn), the activity change, negative = substrate turnover was inactive: -2.92%.

For `COc1ccc(NP(C)(=O)Oc2ccccc2OC)cc1` (stereo not drawn), the activity change, negative = substrate turnover is inactive: 3.92% [at 57.1 µM].

Consider `CP(=O)(Nc1ccc2c(c1)OCCO2)Oc1ccccc1` (stereo not drawn), for which the activity change, negative = substrate turnover is inactive: 11.3% [at 57.1 µM].

For `Cc1ccccc1NP(C)(=O)Nc1ccccc1C`, the activity change, negative = substrate turnover is inactive: 9.82% [at 57.1 µM].

With `CP(=O)(Nc1ccc(SC(F)(F)F)cc1)Oc1ccc(F)cc1` (stereo not drawn), the activity change, negative = substrate turnover is inactive: -6.27%.

For `CCOP(C)(=S)SCC(=O)NC(C)(CC)C(=O)O` (stereo not drawn), the activity change, negative = substrate turnover is inactive: 22.7% [at 57.1 µM].

`O=C(OCCN1CCN(CCOCc2ccccc2)CC1)C(O)(c1ccccc1)c1ccccc1`: the activity change, negative = substrate turnover was inactive: -6.05%.

Consider `CP(=O)(Nc1ccccc1F)Oc1ccccc1` (stereo not drawn), for which the activity change, negative = substrate turnover was inactive: 2.08%.

Take `CC(C)c1ccc(OP(C)(=O)Nc2ccc(SC(F)(F)F)cc2)cc1` (stereo not drawn): the activity change, negative = substrate turnover was inactive: -9.98%.

For `Cc1c([N+](=O)[O-])cc([N+](=O)[O-])c(Br)c1[N+](=O)[O-]`, the activity change, negative = substrate turnover was inactive: -21.9%.

As for `CCN(CC)CCCOC(=O)C(O)(c1ccccc1)C1CCCCC1` (stereo not drawn), the activity change, negative = substrate turnover was inactive: 4.71%.

Consider `CP(=O)(Nc1ccccc1)Oc1ccc(F)cc1` (stereo not drawn), for which the activity change, negative = substrate turnover is inactive: -6.38%.

Regarding `CCCCCOc1ccc(NP(C)(=O)Oc2ccc(Cl)cc2Cl)cc1` (stereo not drawn), the activity change, negative = substrate turnover was inactive: -8.65%.

As to `CCOC(=O)c1ccc(NP(C)(=O)Oc2ccc(F)cc2)cc1` (stereo not drawn), the activity change, negative = substrate turnover is inactive: 1.59%.

For `COc1ccc(OP(C)(=O)Nc2ccc(SC(F)(F)F)cc2)cc1` (stereo not drawn), the activity change, negative = substrate turnover is inactive: -2.35% [at 57.1 µM].
